Source: ChEMBL document CHEMBL2203126, “Diazine indole acetic acids as potent, selective, and orally bioavailable antagonists of chemoattractant receptor homologous molecule expressed on Th2 cells (CRTH2) for the treatment of allergic inflammatory diseases” (J Med Chem, 2012)
pIC50: −log10 of the molar value.

Tests used:
Eosinophil = assay: cells; details: Homo sapiens, Blood, 10 min
[1] = biological target: T1, Prostaglandin D2 receptor 2 (Homo sapiens, UniProt Q9Y5Y4); details: cho-k1
T1 sequence (Q9Y5Y4 whole entry): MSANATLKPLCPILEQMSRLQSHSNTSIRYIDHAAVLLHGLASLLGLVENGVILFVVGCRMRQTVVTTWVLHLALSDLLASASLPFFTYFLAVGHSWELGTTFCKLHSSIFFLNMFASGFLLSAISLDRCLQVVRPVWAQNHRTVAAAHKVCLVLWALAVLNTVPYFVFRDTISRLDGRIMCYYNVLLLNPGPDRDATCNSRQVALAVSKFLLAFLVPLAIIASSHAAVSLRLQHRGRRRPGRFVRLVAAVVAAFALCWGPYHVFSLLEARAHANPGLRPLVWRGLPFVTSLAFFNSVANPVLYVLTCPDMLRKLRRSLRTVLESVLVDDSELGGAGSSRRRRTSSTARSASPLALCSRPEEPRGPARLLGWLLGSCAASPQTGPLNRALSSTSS

Cc1c(Cc2ccc(=O)n(Cc3ccc(F)cc3F)n2)c2ccccc2n1CC(=O)O
pIC50 (Eosinophil): 7.70 | pIC50 [1]: 7.70
